Laboratory results published in patent publication US20260382774A1, “DECREASED RETENTION OF MINIPROTEINS IN KIDNEY” (published 2026).

The chains behind the UniProt entries cited, without tags or fusion partners. Residues count along the entry.
UniProt Q5ZPR3, 29-534 limits assumed: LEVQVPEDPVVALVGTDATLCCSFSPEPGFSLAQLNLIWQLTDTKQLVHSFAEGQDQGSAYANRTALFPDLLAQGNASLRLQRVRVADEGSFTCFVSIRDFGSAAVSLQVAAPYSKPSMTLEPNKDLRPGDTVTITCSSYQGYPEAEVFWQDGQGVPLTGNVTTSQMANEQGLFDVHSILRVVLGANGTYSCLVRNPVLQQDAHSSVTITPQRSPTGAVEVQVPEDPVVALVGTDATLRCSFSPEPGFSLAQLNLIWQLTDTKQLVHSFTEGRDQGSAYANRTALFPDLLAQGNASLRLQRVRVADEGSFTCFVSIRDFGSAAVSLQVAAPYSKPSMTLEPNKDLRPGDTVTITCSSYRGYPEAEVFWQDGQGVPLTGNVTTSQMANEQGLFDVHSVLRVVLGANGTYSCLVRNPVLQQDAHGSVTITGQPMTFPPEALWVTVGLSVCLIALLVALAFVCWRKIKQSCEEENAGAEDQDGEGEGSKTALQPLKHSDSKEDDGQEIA

What was measured:
[1] = In vitro metabolic stability in mouse plasma
[2] = In vivo biodistribution of 111In-labeled test articles, SPECT/CT, kidney
[3] = Radionuclide incorporation of DOTA-compounds (thin-layer chromatography)
B7H3 [4] = molecular target: T1, B7H3 (Homo sapiens, UniProt Q5ZPR3); assay: DELFIA whole cell binding assay (KD, Ki), B7H3; conditions: read-out: DELFIA Ki, Table 4A
B7H3 [5] = molecular target: T1, B7H3; assay: Surface plasmon resonance binding, B7H3; conditions: read-out: SPR KD, Table 4A

Row | Structure (SMILES) | % radionuclide incorporation ([3]; Indium-111) [%] | Ki (B7H3 [4]) [µM] | Kd (B7H3 [5]) [µM] | further results
1 | CC[C@H](C)[C@@H]1NC(=O)[C@H](CC(=O)O)NC(=O)CNC(=O)CNC(=O)[C@H](CCCNC(N)=O)NC(=O)[C@H](CC(C)C)NC(=O)[C@H](CCCNC(N)=O)NC(=O)[C@H](CCCCNC(C)=O)NC(=O)[C@H](CC(C)C)NC(=O)[C@H](C)NC(=O)[C@H]([C@@H](C)O)NC(=O)[C@H](Cc2ccccc2)NC(=O)[C@H](Cc2ccccc2)NC(=O)[C@H](CCC(=O)O)NC(=O)[C@H](CCC(=O)O)NC(=O)[C@H](CC(=O)O)NC(=O)[C@H](Cc2ccc(O)cc2)NC(=O)[C@H](CCC(=O)O)NC(=O)[C@@H](NC(=O)CCOCCOCCOCCOCCNC(=O)CN2CCN(CC(=O)O)CCN(CC(=O)O)CCN(CC(=O)O)CC2)CSSC[C@@H]2NC(=O)[C@H](CC(C)C)NC(=O)[C@H](CCCCNC(C)=O)NC(=O)[C@@H]3CCCN3C(=O)[C@H](C(C)C)NC(=O)[C@H](CCCCNC(C)=O)NC(=O)[C@H](CCCCNC(C)=O)NC(=O)[C@H](Cc3ccccc3)NC(=O)[C@H](CCCCNC(C)=O)NC(=O)[C@H](CCCCNC(C)=O)NC(=O)[C@H](CCCCNC(C)=O)NC(=O)[C@H]([C@@H](C)CC)NC(=O)[C@H](Cc3ccc(O)cc3)NC(=O)[C@H](Cc3ccc(O)cc3)NC(=O)[C@H](CSSC[C@@H](C(N)=O)NC(=O)CNC(=O)[C@H](CC(C)C)NC(=O)[C@H](CCCCNC(C)=O)NC(=O)[C@H](CC(=O)O)NC(=O)[C@H](CC(C)C)NC(=O)[C@H]([C@@H](C)CC)NC(=O)[C@H](CCC(=O)O)NC(=O)[C@H](CCC(=O)O)NC(=O)[C@H]([C@@H](C)CC)NC2=O)NC1=O | 97 |  |  | mPlasma (t½ hr) [1]: >12 h; kidney retention ([2]; FIG. 1, Nectin-4 charge variant conjugates, 4 and 24 hours post-administration): Reduced levels of kidney retention; % radionuclide incorporation ([3]; Lutetium-177): >90%
2 | CCCC[C@H](NC(=O)[C@@H](NC(=O)[C@H](CCC(N)=O)NC(=O)CNC(=O)[C@H](Cc1c[nH]cn1)NC(=O)[C@@H](NC(=O)[C@H](CC(C)C)NC(=O)[C@H](CC(N)=O)NC(=O)[C@@H]1CCCN1C(=O)[C@H](CC(C)C)NC(=O)[C@H](Cc1c[nH]c2ccccc12)NC(=O)[C@@H](NC(=O)[C@@H](NC(=O)[C@H](CCC(=O)O)NC(=O)[C@H](CO)NC(=O)[C@H](CC(C)C)NC(=O)[C@H](C)NC(=O)[C@H](C)NC(=O)[C@@H](NC(=O)[C@H](CCCCN)NC(=O)[C@H](CCC(=O)O)NC(=O)[C@H](CCCCN)NC(=O)[C@H](C)NC(=O)[C@H](Cc1ccc(O)cc1)NC(=O)[C@H](CCCCN)NC(=O)[C@H](C)NC(=O)[C@H](CCC(=O)O)NC(=O)[C@H](C)NC(=O)CCOCCOCCOCCOCCNC(=O)[C@H](CCCNC(N)=O)NC(=O)[C@@H](NC(=O)[C@H](CCC(=O)O)NC(=O)CCOCCOCCOCCOCCNC(=O)CN1CCN(CC(=O)O)CCN(CC(=O)O)CCN(CC(=O)O)CC1)C(C)C)[C@@H](C)CC)[C@@H](C)CC)[C@@H](C)CC)[C@@H](C)O)[C@@H](C)CC)C(=O)N[C@@H](C)C(=O)N[C@@H](Cc1ccccc1)C(=O)N[C@H](C(=O)N[C@@H](C)C(=O)N[C@@H](C)C(=O)N[C@@H](CC(C)C)C(=O)N[C@@H](CC(N)=O)C(=O)N[C@@H](CC(=O)O)C(=O)N[C@@H](CC(=O)O)C(=O)N1CCC[C@H]1C(=O)N[C@@H](CO)C(=O)N[C@@H](CCC(N)=O)C(=O)N[C@@H](CO)C(=O)N[C@@H](CO)C(=O)N[C@@H](CCC(=O)O)C(=O)N[C@@H](CC(C)C)C(=O)N[C@@H](CC(C)C)C(=O)N[C@@H](CO)C(=O)N[C@@H](CCC(=O)O)C(=O)N[C@@H](C)C(=O)N[C@@H](CCCCN)C(=O)N[C@@H](CCCCN)C(=O)N[C@@H](CC(C)C)C(=O)N[C@@H](CC(N)=O)C(=O)N[C@@H](CC(=O)O)C(=O)N[C@@H](CO)C(=O)N[C@@H](CCC(N)=O)C(=O)N[C@@H](C)C(=O)N1CCC[C@H]1C(=O)N[C@@H](CCCCN)C(N)=O)[C@@H](C)CC.[In+3] |  | 0.0131 | 0.00274 | 
3 | CCCC[C@H](NC(=O)[C@@H](NC(=O)[C@H](CCC(N)=O)NC(=O)CNC(=O)[C@H](Cc1c[nH]cn1)NC(=O)[C@@H](NC(=O)[C@H](CC(C)C)NC(=O)[C@H](CC(N)=O)NC(=O)[C@@H]1CCCN1C(=O)[C@H](CC(C)C)NC(=O)[C@H](Cc1c[nH]c2ccccc12)NC(=O)[C@@H](NC(=O)[C@@H](NC(=O)[C@H](CCC(=O)O)NC(=O)[C@H](CO)NC(=O)[C@H](CC(C)C)NC(=O)[C@H](C)NC(=O)[C@H](C)NC(=O)[C@@H](NC(=O)[C@H](CCCCN)NC(=O)[C@H](CCC(=O)O)NC(=O)[C@H](CCCCN)NC(=O)[C@H](C)NC(=O)[C@H](Cc1ccc(O)cc1)NC(=O)[C@H](CCCCN)NC(=O)[C@H](C)NC(=O)[C@H](CCC(=O)O)NC(=O)[C@H](C)NC(=O)CCOCCOCCOCCOCCNC(=O)[C@H](CCCCN)NC(=O)[C@H](Cc1c[nH]c2ccccc12)NC(=O)[C@H](CCSC)NC(=O)CCOCCOCCOCCOCCNC(=O)CN1CCN(CC(=O)O)CCN(CC(=O)O)CCN(CC(=O)O)CC1)[C@@H](C)CC)[C@@H](C)CC)[C@@H](C)CC)[C@@H](C)O)[C@@H](C)CC)C(=O)N[C@@H](C)C(=O)N[C@@H](Cc1ccccc1)C(=O)N[C@H](C(=O)N[C@@H](C)C(=O)N[C@@H](C)C(=O)N[C@@H](CC(C)C)C(=O)N[C@@H](CC(N)=O)C(=O)N[C@@H](CC(=O)O)C(=O)N[C@@H](CC(=O)O)C(=O)N1CCC[C@H]1C(=O)N[C@@H](CO)C(=O)N[C@@H](CCC(N)=O)C(=O)N[C@@H](CO)C(=O)N[C@@H](CO)C(=O)N[C@@H](CCC(=O)O)C(=O)N[C@@H](CC(C)C)C(=O)N[C@@H](CC(C)C)C(=O)N[C@@H](CO)C(=O)N[C@@H](CCC(=O)O)C(=O)N[C@@H](C)C(=O)N[C@@H](CCCCN)C(=O)N[C@@H](CCCCN)C(=O)N[C@@H](CC(C)C)C(=O)N[C@@H](CC(N)=O)C(=O)N[C@@H](CC(=O)O)C(=O)N[C@@H](CO)C(=O)N[C@@H](CCC(N)=O)C(=O)N[C@@H](C)C(=O)N1CCC[C@H]1C(=O)N[C@@H](CCCCN)C(N)=O)[C@@H](C)CC.[In+3] |  | 0.0136 | 0.00557 | 
4 | CCCC[C@H](NC(=O)[C@@H](NC(=O)[C@H](CCC(N)=O)NC(=O)CNC(=O)[C@H](Cc1c[nH]cn1)NC(=O)[C@@H](NC(=O)[C@H](CC(C)C)NC(=O)[C@H](CC(N)=O)NC(=O)[C@@H]1CCCN1C(=O)[C@H](CC(C)C)NC(=O)[C@H](Cc1c[nH]c2ccccc12)NC(=O)[C@@H](NC(=O)[C@@H](NC(=O)[C@H](CCC(=O)O)NC(=O)[C@H](CO)NC(=O)[C@H](CC(C)C)NC(=O)[C@H](C)NC(=O)[C@H](C)NC(=O)[C@@H](NC(=O)[C@H](CCCCN)NC(=O)[C@H](CCC(=O)O)NC(=O)[C@H](CCCCN)NC(=O)[C@H](C)NC(=O)[C@H](Cc1ccc(O)cc1)NC(=O)[C@H](CCCCN)NC(=O)[C@H](C)NC(=O)[C@H](CCC(=O)O)NC(=O)[C@H](C)NC(=O)CCOCCOCCOCCOCCNC(=O)[C@H](CCCCN)NC(=O)[C@@H](NC(=O)[C@H](CCSC)NC(=O)CCOCCOCCOCCOCCNC(=O)CN1CCN(CC(=O)O)CCN(CC(=O)O)CCN(CC(=O)O)CC1)C(C)C)[C@@H](C)CC)[C@@H](C)CC)[C@@H](C)CC)[C@@H](C)O)[C@@H](C)CC)C(=O)N[C@@H](C)C(=O)N[C@@H](Cc1ccccc1)C(=O)N[C@H](C(=O)N[C@@H](C)C(=O)N[C@@H](C)C(=O)N[C@@H](CC(C)C)C(=O)N[C@@H](CC(N)=O)C(=O)N[C@@H](CC(=O)O)C(=O)N[C@@H](CC(=O)O)C(=O)N1CCC[C@H]1C(=O)N[C@@H](CO)C(=O)N[C@@H](CCC(N)=O)C(=O)N[C@@H](CO)C(=O)N[C@@H](CO)C(=O)N[C@@H](CCC(=O)O)C(=O)N[C@@H](CC(C)C)C(=O)N[C@@H](CC(C)C)C(=O)N[C@@H](CO)C(=O)N[C@@H](CCC(=O)O)C(=O)N[C@@H](C)C(=O)N[C@@H](CCCCN)C(=O)N[C@@H](CCCCN)C(=O)N[C@@H](CC(C)C)C(=O)N[C@@H](CC(N)=O)C(=O)N[C@@H](CC(=O)O)C(=O)N[C@@H](CO)C(=O)N[C@@H](CCC(N)=O)C(=O)N[C@@H](C)C(=O)N1CCC[C@H]1C(=O)N[C@@H](CCCCN)C(N)=O)[C@@H](C)CC.[In+3] |  | 0.0137 | 0.00856 | 
5 | CC[C@H](C)[C@@H]1NC(=O)[C@H](CC(=O)O)NC(=O)CNC(=O)CNC(=O)[C@H](CCCNC(=N)N)NC(=O)[C@H](CC(C)C)NC(=O)[C@H](CCCNC(=N)N)NC(=O)[C@H](CCCCN)NC(=O)[C@H](CC(C)C)NC(=O)[C@H](C)NC(=O)[C@H]([C@@H](C)O)NC(=O)[C@H](Cc2ccccc2)NC(=O)[C@H](Cc2ccccc2)NC(=O)[C@H](CCC(=O)O)NC(=O)[C@H](CCC(=O)O)NC(=O)[C@H](CC(=O)O)NC(=O)[C@H](Cc2ccc(O)cc2)NC(=O)[C@H](CCC(=O)O)NC(=O)[C@@H](NC(=O)CCOCCOCCOCCOCCNC(=O)[C@H](CCCCN)NC(=O)[C@H](Cc2c[nH]c3ccccc23)NC(=O)[C@H](CCSC)NC(=O)CCOCCOCCOCCOCCNC(=O)CN2CCN(CC(=O)O)CCN(CC(=O)O)CCN(CC(=O)O)CC2)CSSC[C@@H]2NC(=O)[C@H](CC(C)C)NC(=O)[C@H](CCCCN)NC(=O)[C@@H]3CCCN3C(=O)[C@H](C(C)C)NC(=O)[C@H](CCCCN)NC(=O)[C@H](CCCCN)NC(=O)[C@H](Cc3ccccc3)NC(=O)[C@H](CCCCN)NC(=O)[C@H](CCCCN)NC(=O)[C@H](CCCCN)NC(=O)[C@H]([C@@H](C)CC)NC(=O)[C@H](Cc3ccc(O)cc3)NC(=O)[C@H](Cc3ccc(O)cc3)NC(=O)[C@H](CSSC[C@@H](C(N)=O)NC(=O)CNC(=O)[C@H](CC(C)C)NC(=O)[C@H](CCCCN)NC(=O)[C@H](CC(=O)O)NC(=O)[C@H](CC(C)C)NC(=O)[C@H]([C@@H](C)CC)NC(=O)[C@H](CCC(=O)O)NC(=O)[C@H](CCC(=O)O)NC(=O)[C@H]([C@@H](C)CC)NC2=O)NC1=O | 94.7 |  |  | kidney uptake and retention ([2]; FIG. 5, Version 1 cleavable linker, vs C14, 4 and 24 hours): minimal alterations
